The values that follow are results of earlier work, collected in patent publication EP1156371A2, “Replenishing method of planographic printing plate developer” (FUJI PHOTO FILM CO., LTD., priority 2000, dated 2001).

Structures are written as SMILES.

For the data set the following is noted: dissociation constant of weak acid, aqueous solution.

The pKa is the pH at which an ionisable group is half protonated. For `OCC(Cl)(Cl)Cl` [trichloroethanol], the pKa is 12.24.
